Data published in patent US8541380B2, “C-aryl glucoside SGLT2 inhibitors and pharmaceutical compositions comprising same” (Green Cross Corporation, priority 2009, dated 2013).
pIC50: −log10 of the molar value.

The chains behind the UniProt entries cited, without tags or fusion partners. Where a name states a change or a piece, a line headed by the entry shows the natural chain unless it says otherwise.
UniProt P31639: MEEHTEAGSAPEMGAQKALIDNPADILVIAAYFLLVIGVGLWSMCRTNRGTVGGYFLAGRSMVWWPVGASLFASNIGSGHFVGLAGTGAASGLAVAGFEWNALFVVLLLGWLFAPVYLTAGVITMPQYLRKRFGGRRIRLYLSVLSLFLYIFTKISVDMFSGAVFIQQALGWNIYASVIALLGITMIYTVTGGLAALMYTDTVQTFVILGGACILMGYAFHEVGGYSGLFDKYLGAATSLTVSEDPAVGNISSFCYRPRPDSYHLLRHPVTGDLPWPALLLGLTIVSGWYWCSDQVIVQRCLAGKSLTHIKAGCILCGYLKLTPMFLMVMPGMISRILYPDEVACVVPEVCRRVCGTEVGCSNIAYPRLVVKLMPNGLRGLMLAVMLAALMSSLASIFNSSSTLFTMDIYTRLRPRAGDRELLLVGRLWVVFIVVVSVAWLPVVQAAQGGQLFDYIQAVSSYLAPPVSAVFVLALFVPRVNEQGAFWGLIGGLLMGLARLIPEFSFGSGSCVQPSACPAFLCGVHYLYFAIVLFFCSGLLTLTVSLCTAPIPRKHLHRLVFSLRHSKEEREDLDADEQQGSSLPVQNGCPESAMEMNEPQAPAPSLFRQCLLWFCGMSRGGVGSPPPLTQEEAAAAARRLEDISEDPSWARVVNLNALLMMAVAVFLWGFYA

Biological target: human SGLT2 (Homo sapiens (Human), UniProt P31639)
Assay: hSGLT2 inhibitory activity, sodium-dependent 14C-AMG glucose transport assay in CHO cells expressing hSGLT2
Format: cell-based
Settings: 14C-AMG uptake, CHO cells expressing hSGLT2, 37° C. for 2 h
From the text: Human SGLT2 (hSGLT2) gene was amplified by PCR from cDNA-Human Adult Normal Tissue Kidney (Invitrogen, Carlsbad, Calif.). The hSGLT2 sequence was cloned into pcDNA3.1(+) for mammalian expression and were stably transfected into Chinese hamster ovary (CHO) cells. SGLT2-expressing clones were selected based on resistance to G418 antibiotic (Geneticin®, Invitrogen, Carlsbad, Calif.) and activity in the ^14C-α-methyl-D-glucopyranoside (^14C-AMG) uptake assay.
For sodium-dependent glucose transport assay, cells expressing hSGLT2 were seeded into a 96-well culture plate at a density of 5×10^4 cells/well in RPMI medium 1640 containing 10% fetal bovine serum. The cells were used 1 day after plating. They were incubated in pretreatment buffer (10 mM HEPES, 5 mM Tris, 140 mM choline chloride, 2 mM KCl, 1 mM CaCl2, and 1 mM MgCl2, pH 7.4) at 37° C. for 10 min. They were then incubated in uptake buffer (10 mM HEPES, 5 mM Tris, 140 mM NaCl, 2 mM KCl, 1 mM CaCl2, 1 mM MgCl2, and 1 mM ^14C-nonlabeled AMG pH 7.4) containing ^14C-labeled (8 uM) and inhibitor or dimethyl sulfoxide (DMSO) vehicle at 37° C. for 2 h. Cells were washed twice with washing buffer (pretreatment buffer containing 10 mM AMG at room temperature) and then the radioactivity was measured using a liquid scintillation counter.

| SMILES | pIC50 |
| --- | --- |
| OC[C@H]1OC(c2cccc(Cc3nnc(-c4cccnc4)s3)c2)[C@H](O)[C@@H](O)[C@@H]1O (stereo partly drawn) [Example 36, (2R,3S,4R,5R)-2-(Hydroxymethyl)-6-(3-((5-(pyridin-3-yl)-1,3,4-thiadiazol-2-yl)methyl)phenyl)-tetrahydro-2H-pyran-3,4,5-triol] | 5.91 |
| OC[C@H]1OC(c2cccc(Cc3nnc(-c4ccccc4)s3)c2)[C@H](O)[C@@H](O)[C@@H]1O (stereo partly drawn) [Example 35, (2R,3S,4R,5R)-2-(Hydroxymethyl)-6-(3-((5-phenyl-1,3,4-thiadiazol-2-yl)methyl)phenyl)-tetrahydro-2H-pyran-3,4,5-triol] | 5.85 |
